Earlier results on one molecule are cited in patent US9193755B1, “TFEB variants and uses thereof” (Fondazione Telethon, priority 2011, dated 2015).

The series concerns the target mTOR (Homo sapiens, UniProt P42345). Particulars: recent data (41, 47, 48); cited from earlier work.

For `CCC(=O)N1CCN(c2ccc(-n3c(=O)ccc4cnc5ccc(-c6cnc7ccccc7c6)cc5c43)cc2C(F)(F)F)CC1` [Torin 1], the mTOR inhibition result is listed as “completely inhibiting mTOR activity”.
